Laboratory results as given in patent US20160046618A1, “Cyclopropyl Fused Thiazin-2-Amine Compounds as Beta-Secretase Inhibitors and Methods of Use” (AMGEN INC., priority 2014, published 2016).

By UniProt entry, the sequences of proteins in these tests, tags left out. Residues count along the entry.
UniProt P56817, 46-501 limits assumed: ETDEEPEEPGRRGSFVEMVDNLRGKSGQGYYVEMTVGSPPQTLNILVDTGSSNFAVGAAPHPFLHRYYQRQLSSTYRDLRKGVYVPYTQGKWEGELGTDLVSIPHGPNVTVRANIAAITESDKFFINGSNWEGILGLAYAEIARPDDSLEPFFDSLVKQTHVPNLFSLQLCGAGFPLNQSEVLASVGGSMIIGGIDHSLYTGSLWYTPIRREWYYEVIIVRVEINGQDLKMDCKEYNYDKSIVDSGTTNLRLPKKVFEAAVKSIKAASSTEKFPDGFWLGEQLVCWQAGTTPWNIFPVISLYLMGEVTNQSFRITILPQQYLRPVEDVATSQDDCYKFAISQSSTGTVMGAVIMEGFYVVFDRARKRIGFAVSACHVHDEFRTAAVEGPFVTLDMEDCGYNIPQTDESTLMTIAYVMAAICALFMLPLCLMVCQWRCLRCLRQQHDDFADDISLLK
UniProt Q9Y5Z0, 63-518 limits assumed: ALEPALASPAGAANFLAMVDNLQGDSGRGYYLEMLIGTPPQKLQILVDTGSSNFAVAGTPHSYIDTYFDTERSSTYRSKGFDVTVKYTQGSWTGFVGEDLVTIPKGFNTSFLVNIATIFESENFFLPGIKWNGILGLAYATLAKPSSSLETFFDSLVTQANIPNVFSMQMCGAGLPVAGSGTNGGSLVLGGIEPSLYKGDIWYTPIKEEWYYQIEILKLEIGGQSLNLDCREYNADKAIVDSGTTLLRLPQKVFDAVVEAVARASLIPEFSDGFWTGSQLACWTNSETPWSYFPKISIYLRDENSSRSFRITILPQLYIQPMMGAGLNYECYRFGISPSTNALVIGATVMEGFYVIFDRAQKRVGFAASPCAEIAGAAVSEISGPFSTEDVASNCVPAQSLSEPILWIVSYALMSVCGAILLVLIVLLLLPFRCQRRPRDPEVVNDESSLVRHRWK
UniProt P07339, 65-412 limits assumed: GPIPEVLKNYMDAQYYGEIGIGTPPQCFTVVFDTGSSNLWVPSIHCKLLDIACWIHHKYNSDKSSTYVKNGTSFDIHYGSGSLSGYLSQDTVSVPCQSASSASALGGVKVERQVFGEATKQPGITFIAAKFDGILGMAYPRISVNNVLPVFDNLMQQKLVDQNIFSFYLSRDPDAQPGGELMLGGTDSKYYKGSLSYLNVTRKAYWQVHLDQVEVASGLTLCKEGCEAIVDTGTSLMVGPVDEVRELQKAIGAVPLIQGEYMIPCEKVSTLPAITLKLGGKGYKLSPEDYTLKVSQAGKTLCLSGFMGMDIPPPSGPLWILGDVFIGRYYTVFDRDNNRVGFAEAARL

Experiments:
human recombinant BACE1 = human recombinant BACE1 (Homo sapiens (Human), UniProt P56817); experiment: In vitro enzymatic BACE1 FRET assay; assay type: biochemical; conditions: read-out: IC50 IP (μM) BACE1 enzyme
human recombinant BACE2 = human recombinant BACE2 (Homo sapiens (Human), UniProt Q9Y5Z0); experiment: In vitro enzymatic BACE2 FRET assay; assay type: biochemical; conditions: read-out: IC50 IP (μM) BACE2 enzyme
[1] = system: Aβ40 in conditioned medium of cells stably expressing Amyloid Precursor Protein (APP); experiment: In vitro BACE-1 cell-based assay (Aβ40 sandwich ELISA); conditions: read-out: IC50 IP (μM) BACE1 cell
Recombinant Cat D = Recombinant Cat D (Homo sapiens (Human), UniProt P07339); experiment: In vitro enzymatic Cathepsin D (Cat D) FRET assay; assay type: biochemical; conditions: read-out: IC50 IP (μM) CatD

With `C#C[C@H](C)Oc1cnc2c(Nc3cc(F)c(F)c([C@@]4(C)N=C(N)S[C@@]5(C(F)F)C[C@@H]45)c3)nccc2n1` the IC50 (human recombinant BACE1) was 0.001 µM, the IC50 (human recombinant BACE2) was 0.2 µM and the IC50 [1] was 0.0257 µM. It also gave an IC50 (Recombinant Cat D) of 517 µM.
